# Test results reported in PMC10067937.
# Target: human PIEZO1-mTurquoise2 (human) (UniProt Q92508)
# Experiment: FRET or BRET; FRET by FLIM of the donor PIEZO1-mTurquoise2 with an acceptor-tagged partner coexpressed in COS-7 cells, fixed with 4% paraformaldehyde; two-photon excitation at 800 nm; peak lifetime of whole cells, cell-cell junctions or non-junctional regions; static dishes, or slides preconditioned 24 h at 10 dyn.cm^-2, 30 min static, then 10 min shear or static
substance,measurement,value
"human PECAM1-SYFP2 (wild type), in COS-7 cells (from UniProt P16284 28-738) (natural protein; other documents disagree on this pair)",fluorescence lifetime of the donor (PIEZO1-mTurquoise2) with the acceptor coexpressed,3.5 ns
